Measurements: PubChem BioAssay AID2717 (Broad Institute, 2010)
The entries are a selection whose mix differs from that of the whole data set. Calls of active or inactive are those of the source. Cut-off read from the data, not from the text of the source: active = inhibition above about 75%; inconclusive = no clear call, values can overlap the other calls; inactive = below that; tested in HMLE shEcad cells.

Assay: cancer stem cell viability inhibitors, primary screen, luminescence (AID 2717)
Settings: cancer stem cell-like cells viability, at 7.5 µM, hits give high values

Row | Compound | inhibition
1 | N#CC1(Nc2ccccc2)CCN(CCc2ccccc2)CC1 | inactive: -1.51%
2 | CCN1CCC(Nc2ccc(Cl)cc2)CC1 | inactive: -10.8%
3 | O=C(NCC1(N2CCCCC2)CCCCC1)c1cccc([N+](=O)[O-])c1 | inactive: 6.28%
4 | O=C(NCC1(N2CCCCC2)CCCCC1)c1ccc(OC(F)F)cc1 | inactive: 18.5%
5 | COc1cc(C(=O)NCC2(N3CCCCC3)CCCCC2)ccc1OC(F)F | inactive: -6.38%
6 | O=C(NCC1(N2CCOCC2)CCCCC1)c1cc(=O)[nH]c2ccccc12 | inactive: 6.48%
7 | CN1CCN(CCOC(=O)C(O)(c2ccccc2)c2ccccc2)CC1 | inactive: -3.19%
8 | O=C(NCC1(N2CCCCC2)CCCCC1)c1cccc(C(F)(F)F)c1 | inactive: -8.41%
9 | O=C(NCC1(N2CCOCC2)CCCCC1)c1cc(F)c(F)cc1Cl | inactive: -11.8%
10 | COc1cc(OC)c(C(=O)NCC2(N(C)C)CCCCC2)cc1OC | inactive: -6.63%
11 | CC(C)c1ccc(NC2CCN(C(=O)OC(C)(C)C)CC2)cc1 | inactive: 15.5%
12 | CN(C)c1cccc(C(=O)NCC2(N3CCCCC3)CCCCC2)c1 | inactive: 2.36%
13 | COc1ccc(CN(CCCl)CCCl)cc1Cl | inactive: -9.76%
14 | CCCOc1ccc(C(=O)NCC2(N(C)C)CCCCC2)cc1OC | inactive: -2.41%
15 | CN1CCC(Nc2cccc(F)c2)CC1 | inactive: -13.2%
16 | O=C(NCC1(N2CCCCC2)CCCCC1)c1cncc(Br)c1 | inactive: -3.98%
17 | CSc1ccccc1C(=O)NCC1(N2CCCCC2)CCCCC1 | inactive: 6.37%
18 | COc1ccc(C(=O)NCC2(N3CCCCC3)CCCCC2)c(OC)c1OC | inactive: -5.53%
19 | CC(C)(C)OC(=O)N1CCC(N(C(=O)c2ccccc2)c2ccc(F)cc2)CC1 | inactive: -14.3%
20 | COc1ccc(C(=O)NCC2(N3CCCCC3)CCCCC2)cc1 | inactive: 5.08%

Row | Compound | inhibition
21 | O=C(NCC1(N2CCCCC2)CCCCC1)c1cccs1 | inactive: -6.7%
22 | O=C(NCC1(N2CCCCC2)CCCCC1)c1ccc(=O)[nH]c1 | inactive: -0.956%
23 | N#CC1(Nc2ccccc2)CCN(Cc2ccccc2)CC1 | inactive: -4.41%
24 | O=C(OC1CN2CCC1CC2)C1c2ccccc2Oc2ccccc21 (stereo not given) | inactive: -9.37%
25 | CCOC(=O)N1CCC(Nc2ccc(OC)cc2)CC1 | inactive: -9.55%
26 | Cc1cc(C)cc(N(C(=O)c2ccccc2)C2CCN(C(=O)OC(C)(C)C)CC2)c1 | inactive: 6.16%
27 | O=C(NCC1(N2CCCCC2)CCCCC1)c1ccc(Cl)nc1 | inactive: 1.48%
28 | O=C(NCC1(N2CCOCC2)CCCCC1)c1cc2ccccc2o1 | inactive: -1.37%
29 | COc1ccc(NC2CCN(CCc3ccccc3)CC2)c(OC)c1 | inactive: -0.747%
30 | CCOC(=O)N1CCC(Nc2ccc(F)cc2)CC1 | inactive: -12%
31 | O=C(NCC1(N2CCCCC2)CCCCC1)c1ccc(F)cc1 | inactive: -8.97%
32 | CCOc1ccc(C)cc1CN(CCCl)CCCl | inactive: -4.62%
33 | Cc1ccc(OCC(C)C)c(CN(CCCl)CCCl)c1 | inactive: -14%
34 | CCOC(=O)N1CCC(Nc2cccc(C)c2)CC1 | inactive: 2.07%
35 | COc1cc(C(=O)NCC2(N(C)C)CCCCC2)ccc1OC(F)F | inactive: -10.5%
36 | Fc1ccccc1NC1CCN(Cc2ccccc2)CC1 | inactive: -6.38%
37 | Cc1ccc(C(=O)NCC2(N3CCCCC3)CCCCC2)o1 | inactive: -4.16%
38 | COc1cc(OC)cc(C(=O)NCC2(N3CCCCC3)CCCCC2)c1 | inactive: 0.246%
39 | CN(C)c1ccc(C(=O)NCC2(N3CCCCC3)CCCCC2)cc1 | inactive: -2.63%
40 | CCN1CCC(Nc2cccc(F)c2)CC1 | inactive: -8.19%

Row | Compound | inhibition
41 | O=C(O)C1(Nc2ccccc2)CCN(Cc2ccccc2)CC1 | inactive: -5.8%
42 | CC(C)(C)OC(=O)N1CCC(Nc2ccccc2)CC1 | inactive: -10.7%
43 | CCCOc1ccc(C(=O)NCC2(N(C)C)CCCCC2)cc1 | inactive: -13.8%
44 | CN1CCC(Nc2ccc(F)c(Cl)c2)CC1 | inactive: 1.8%
45 | CCOc1ncccc1C(=O)NCC1(N2CCOCC2)CCCCC1 | inactive: -7.04%
46 | CN1CCC(Nc2ccc(Cl)cc2)CC1 | inactive: -7.25%
47 | CCCOc1ccc(C)cc1CN(CCCl)CCCl | inactive: -13.3%
48 | COc1cc(OC)cc(C(=O)NCC2(N3CCOCC3)CCCCC2)c1 | inactive: -9.5%
49 | COc1cccc(C(=O)N(c2cc(C)cc(C)c2)C2CCN(C(=O)OC(C)(C)C)CC2)c1 | inactive: 5.52%
50 | CCC(CO)(C(=O)OC1CN2CCC1CC2)c1ccccc1 (stereo not given) | inactive: 4.13%
51 | COc1ccc(C(=O)NCC2(N3CCOCC3)CCCCC2)cc1OC | inactive: -2.06%
52 | COc1cc(C(=O)NCC2(N3CCOCC3)CCCCC2)cc(OC)c1C | inactive: -9.13%
53 | CCc1cc(C(=O)NCC2(N3CCCCC3)CCCCC2)sc1C | inactive: -1.08%
54 | CCOC(=O)N1CCC(Nc2ccc(C)cc2)CC1 | inactive: -14.6%
55 | N/C(=N\O)c1c(N)no[n+]1[O-] | inactive: -3.82%
56 | N#Cc1ccc(C(=O)NCC2(N3CCCCC3)CCCCC2)cc1 | inactive: -12.5%
57 | CC(C)(C)OC(=O)N1CCC(N(C(=O)c2ccccc2)c2ccc(Cl)cc2)CC1 | inactive: -7.07%
58 | CN(C)C1(CNC(=O)c2cccc(C#N)c2)CCCCC1 | inactive: 7.32%
59 | CCCN1CCC(Nc2cc(OC)cc(OC)c2)CC1 | inactive: -6.21%
60 | c1ccc(CN2CCC(Nc3ccccc3)CC2)cc1 | inactive: 21.9%
